Where two headings read alike, the source gives them in different places.
Assays:
[1] = Peptide pharmacokinetics, monkey study (IV and SC); conditions: Cyno
Method: Pharmacokinetics of the test peptides were evaluated in vivo as described herein. Male Sprague Dawley rats (300-450 g), male Beagle dogs (5-10 kg) and male cynomolgus monkeys (2-4 kg) were used in the pharmacokinetics (PK) study. All animal procedures were approved by the Institutional Animal Care and Use Committee at the Test Facility.
For IV dosing, compounds were administered by intravenous bolus injection into one of the two peripheral tail veins, at 0.1 mg/kg or 0.3 mg/kg in 0.01M phosphate (pH 7.4, 1 mg/mL). Following dosing, the catheter was flushed with 3 mL of saline prior to removal. For SC dosing, compounds were administered at the intra-scapular skin, at 0.3 mg/kg or 0.9 mg/kg in 0.01M phosphate (pH 7.4, 5 mg/mL). The SC injection site was prepared by clipping away the hair and cleaning with alcohol. After administration, the site was marked with a circle approximately 5cm in diameter.
Blood samples were collected into tubes with K2EDTA. Tubes were stored on wet ice until processed to plasma by centrifugation (2,200 x g at nominal 4°C for 10 minutes) within 60 minutes of collection. Plasma samples were transferred into individual uniquely labeled matrix tubes and stored at nominal -80°C until analysis by liquid chromatography tandem-mass spectrometry (LC-MS/MS).
The plasma samples were prepared by solid phase extraction (SPE) using a Waters PRiME HLB Microelution plate. The SPE plate was conditioned using water:methanol (50:50, v/v) and 0.5% tween 80 in water. After pretreated samples were loaded, wells were washed with 5% methanol in water and 0.1% TFA in water:acetonitrile (80:20, v/v). Wells were eluted with 0.1% formic acid, 0.5% 2,2,2-trifluoroethanol in water:acetonitrile (20:80, v/v) followed by a dilution with 0.1% formic acid, 0.1% tween 80 in water for analysis by LC-MS/MS. The analyte and internal standard (IS) were separated by reversed-phase chromatography using a Shimadzu Nexera X2 UHPLC system and Phenomenex bioZen Peptide PS-C18 50x2.1-mm, 3µm column. The analyte and IS were detected using an Applied Biosystems Sciex API 6500 triple quadrupole mass spectrometer. The mass spectrometer was equipped with an electrospray ionization source operated in the positive-ion mode. The analyte and internal standard were monitored in the multiple-reaction-monitoring scan mode.
Noncompartmental pharmacokinetic parameters were calculated using Phoenix® WinNonlin® software (Version 8.3; Linear Up Log Down Interpolation Calculation Method; Certara L.P.).

The chains behind the UniProt entries cited, without tags or fusion partners. Residues count along the entry.
UniProt P34998, 24-415 limits assumed: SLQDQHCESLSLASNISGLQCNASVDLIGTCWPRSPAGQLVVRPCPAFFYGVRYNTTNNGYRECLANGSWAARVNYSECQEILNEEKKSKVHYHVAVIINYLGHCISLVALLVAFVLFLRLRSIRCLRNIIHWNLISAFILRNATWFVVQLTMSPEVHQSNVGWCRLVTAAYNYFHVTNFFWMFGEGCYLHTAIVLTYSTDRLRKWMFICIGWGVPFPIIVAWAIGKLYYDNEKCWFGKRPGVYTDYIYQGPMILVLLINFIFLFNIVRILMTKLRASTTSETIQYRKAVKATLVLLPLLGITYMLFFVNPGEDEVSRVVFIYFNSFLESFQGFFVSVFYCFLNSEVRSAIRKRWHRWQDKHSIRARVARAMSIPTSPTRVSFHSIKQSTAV

[2] = target: hCRF-R1 (Homo sapiens, UniProt P34998); test: cAMP assay (HitHunter), antagonist IC50 in CHO-K1 hCRF-R1 cells, with or without BSA
Method: Human CHO-KI CRF-R1 (hCRF-R1; Catalog # 95-0047C2) and human CHO-K1 CRF2 (hCRF-R2; Catalog # 95-0048C2) cell lines were purchased from Eurofins.
CHO-K1 Complete Media: DMEM Version (complete medium):Dulbecco's Minimal Essential Media with High Glucose, 4.5% (DMEM-HG), 10% [vol] U.S. Sourced, Certified Fetal Bovine Serum (FBS), and 1X [standard mammalian cell culture concentration] of the following: L-Glutamine, Non-Essential Amino Acids, Hepes Buffer (10 mM final concentration) and a standard antibiotic/antimycotic mix (penicillin, streptomycin, amphotericin B (Gibbco Cat # 15240062).
CHO-K1 Complete Media - HF12 Version is the same as the CHO-K1 Complete Media, DMEM Version (complete medium), except that Ham's F-12 was used as the base media. Cell Plating 2 Reagent (CPR2) - Eurofins DiscoverX Assay Complete Cell Plating 2 Reagent (Cat# 93-0563R2A). Lipofecamine LTX (Invitrogen™ Cat# 15338100). FuGENE 6 (Promega Cat# E2691). Bovine Albumin Fraction V, Fatty Acid Free: MP Biomedicals, Cat. 152401, Lot. S8210.
On Day 0, cryovial(s) containing the frozen cells (approx. 1.0E+6 cells/vial) stored in liquid nitrogen were removed and thawed in a 37°C water bath for 60 seconds and then diluted into fresh CHO-K1 Complete Media that was pre-warmed to 37°C. […]
Eurofins Assay Ready (division arrested) versions of the above hCRF-R1 and hCRF-R2 (hCRF-R1 and hCRF-R2 eXpress cell/assay kits) cells were removed from liquid nitrogen storage and thawed in a 37°C water bath for 30 seconds and then diluted into fresh Cell Plating 2 Reagent that was pre-warmed to 37°C. […]
cAMP was determined utilizing a DiscoverX HitHunter assay Enzyme Fragment Complementation (EF) technology purchased from Eurofins as described in the manufacturing instructions with some adjustments. IC50's were calculated from antagonist dose response curves utilizing interpolated cAMP levels and/or relative light unit (RLU) data. In addition, eXpress assay ready cAMP kits were also utilized with hCRF-R1 and hCRF-R2 division arrested cells according to the manufacturing instructions. […]

IV CL ([1]; IV dose 0.1 mg/kg): 18.7 mL/day/kg | IV Vd ([1]; IV dose 0.1 mg/kg): 0.056 L/kg | IV t1/2 ([1]; IV dose 0.1 mg/kg): 48.2 h | SC AUC ([1]; SC Dose 0.3 mg/kg): 275 µg·h/mL | SC Cmax ([1]; SC Dose 0.3 mg/kg): 2490 ng/mL | SC Tmax ([1]; SC Dose 0.3 mg/kg): 56 h | SC t1/2 ([1]; SC Dose 0.3 mg/kg): 102 h | SC F ([1]; SC Dose 0.3 mg/kg, IV dose 0.1 mg/kg): 79% | IC50 ([2]; read-out: CRFR1 (IC50 nM) BSA (0.1%), BSA (0.1%)): 98 nM | IC50 ([2]; read-out: CRFR1 (IC50 nM) No Albumin, No Albumin): 3.5 nM | IC50 ([2]; read-out: CRFR1 IC50 in BSA, assay buffer containing 0.1% BSA, agonist hCRF 1 nM): 98 nM
Substance: Ac-Asp-Leu-Thr-D-Phe-His-Leu-Leu-Arg-Glu-Val-Leu-Glu-Nle-K*-Arg-Glu-Glu-Gln-cVal-Ala-Gln-E#-Ala-Glu-K#-Asn-Arg-Lys-Leu-Nle-Glu-cVal-Ala-CONH2

Reference: patent EP4847524A2, “FATTY ACID CONJUGATED CYCLIC PEPTIDES” (dated 2026)
